Values of other authors as cited in US6849254B1, “HCV combination therapy” (Schering Corporation, priority 1999, dated 2005).

Details: healthy volunteers; single oral dose of 400 IU, 800 IU and 1200 IU (Dimitrov et al.)

Question: Which “Plasma alpha tocopherol concentrations” value does the source give for “d-alpha-tocopheryl polyethylene glycol 1000 succinate [Vitamin E-TPGS]” here?
Answer: The value was “slight elevation of plasma alpha tocopherol concentrations”.
